Results: patent US9499523B2, “Phosphatidylinositol 3-kinase inhibitors” (Gilead Sciences, Inc., priority 2014, dated 2016)

Protein sequences, listed by entry. Tags and fused reporters are not part of them. Lines headed by an entry give the natural chain unless they say otherwise; changes in a name come on top.
UniProt O00329: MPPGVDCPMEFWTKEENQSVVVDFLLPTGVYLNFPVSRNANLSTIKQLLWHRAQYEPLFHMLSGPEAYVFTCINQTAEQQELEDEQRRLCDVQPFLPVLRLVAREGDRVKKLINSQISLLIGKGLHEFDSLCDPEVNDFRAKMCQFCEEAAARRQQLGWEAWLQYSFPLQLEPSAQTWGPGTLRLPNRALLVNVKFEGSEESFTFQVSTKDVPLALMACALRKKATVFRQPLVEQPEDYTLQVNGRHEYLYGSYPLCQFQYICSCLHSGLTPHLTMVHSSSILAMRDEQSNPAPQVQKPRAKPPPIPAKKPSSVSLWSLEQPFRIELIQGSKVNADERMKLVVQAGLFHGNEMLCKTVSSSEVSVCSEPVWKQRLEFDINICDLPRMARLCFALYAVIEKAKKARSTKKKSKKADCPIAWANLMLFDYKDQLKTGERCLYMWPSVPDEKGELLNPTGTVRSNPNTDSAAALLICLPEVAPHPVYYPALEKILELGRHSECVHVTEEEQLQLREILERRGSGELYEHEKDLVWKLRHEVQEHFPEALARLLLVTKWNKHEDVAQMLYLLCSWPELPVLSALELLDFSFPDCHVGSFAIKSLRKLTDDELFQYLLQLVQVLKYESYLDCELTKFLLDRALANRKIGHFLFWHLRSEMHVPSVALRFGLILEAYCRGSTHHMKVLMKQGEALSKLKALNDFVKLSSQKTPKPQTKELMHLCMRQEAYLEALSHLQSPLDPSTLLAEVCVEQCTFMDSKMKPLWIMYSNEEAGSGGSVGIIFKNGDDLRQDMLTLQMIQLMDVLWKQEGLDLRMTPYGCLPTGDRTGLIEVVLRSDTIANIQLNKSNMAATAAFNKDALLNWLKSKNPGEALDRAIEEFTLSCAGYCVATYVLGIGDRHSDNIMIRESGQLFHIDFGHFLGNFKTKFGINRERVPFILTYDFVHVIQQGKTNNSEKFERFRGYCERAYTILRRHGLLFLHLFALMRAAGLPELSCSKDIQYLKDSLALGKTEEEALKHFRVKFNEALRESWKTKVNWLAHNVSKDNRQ

Molecular target: PI3Kδ (Homo sapiens (Human), UniProt O00329)
Assay: TR-FRET enzymatic assay of PI3K isoforms, PI3Kδ
Conditions: read-out: PI3Kδ IC50, 2×Km ATP, 30 minutes at 25° C.

IC50 [nM] | SMILES
26 | C[C@H](Nc1nc(N)nc(N)c1Cl)c1nc2c(F)ccc(Cl)c2c(=O)n1-c1cnc(N)cn1 [Compound 1, (S)-3-(5-aminopyrazin-2-yl)-5-chlor-2-(1-((2,6-diamino-5-chloropyrimidin-4-yl)amino)ethyl)-8-fluoroquinazolin-4(3H)-one]
30 | Nc1cnc(-n2c([C@@H](Nc3ncnc(N)c3Cl)C3CC3)nc3cccc(Cl)c3c2=O)cn1 [Compound 21, (S)-2-(((6-Amino-5-chloropyrimidin-4-yl)amino)(cyclopropyl)methyl)-3-(5-aminopyrazin-2-yl)-5-chloroquinazolin-4(3H)-one]
